# Assay results: PubChem BioAssay AID504766 (The Scripps Research Institute Molecular Screening Center, 2011)
# Sequences of proteins named here, by UniProt entry; tags and fusion partners are left off. Residues count along the entry.
# UniProt P51843, 207-470 limits assumed: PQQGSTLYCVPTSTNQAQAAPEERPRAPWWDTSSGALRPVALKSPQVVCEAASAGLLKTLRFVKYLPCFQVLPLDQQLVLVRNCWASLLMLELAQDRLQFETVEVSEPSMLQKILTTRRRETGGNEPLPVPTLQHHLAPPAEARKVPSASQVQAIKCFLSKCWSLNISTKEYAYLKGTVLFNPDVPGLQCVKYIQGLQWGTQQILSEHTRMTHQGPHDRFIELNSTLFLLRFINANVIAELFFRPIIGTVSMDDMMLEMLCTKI
# Only a part is listed here, and it is no random draw. The source made the active and inactive calls.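 The calls were made as follows: active = inhibition above the mean over all tested compounds plus 3 SD (cut at about 4.2% in these data); inactive = the rest.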
# Biological target: Nuclear receptor subfamily 0 group B member 1 (Homo sapiens) (UniProt P51843)
# Assay: DAX1 (NR0B1) inhibitors, primary screen, cell-based, HEK293, Gal4-DAX1, luciferase luminescence (AID 504766);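 also: 0% = DAX1-transfected cells with DMSO and 100% = empty-vector control cells with DMSO; inhibition shows as a rise in luminescence from relieved DAX1 repression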
# Conditions: HEK293 Gal4-DAX1 luciferase reporter, at 6.75 µM, stronger effect = higher value
row,SMILES,inhibition
1,N#Cc1ccc(C(=O)NCC2(N3CCCCC3)CCCCC2)cc1,inactive: -0.08%
2,CC(C)(C)OC(=O)N1CCC(N(C(=O)c2ccccc2)c2ccc(Cl)cc2)CC1,inactive: -1.77%
3,CN(C)C1(CNC(=O)c2cccc(C#N)c2)CCCCC1,inactive: 1.74%
4,Cc1cc(N(CCCl)CCCl)ccc1C=O,inactive: -1.19%
5,CCCN1CCC(Nc2cc(OC)cc(OC)c2)CC1,inactive: 2.11%
6,c1ccc(CN2CCC(Nc3ccccc3)CC2)cc1,inactive: 1.71%
7,COc1ccc(C(=O)NCC2(N3CCOCC3)CCCCC2)cc1OC,inactive: 3.55%
8,COc1cc(C(=O)NCC2(N3CCOCC3)CCCCC2)cc(OC)c1C,inactive: 0.08%
9,O=C(NCC1(N2CCOCC2)CCCCC1)c1cc(Br)ccc1Cl,inactive: 0.24%
10,O=C(OC1CN2CCC1CC2)C1c2ccccc2C=Cc2ccccc21 (stereo not given),inactive: 0.85%
11,CCOC(=O)N1CCC(Nc2ccc(C)cc2)CC1,inactive: -2.54%
12,N/C(=N\O)c1c(N)no[n+]1[O-],inactive: 0.32%
13,O=C(O)C1(Nc2ccccc2)CCN(Cc2ccccc2)CC1,inactive: -0.53%
14,CC(C)(C)OC(=O)N1CCC(Nc2ccccc2)CC1,inactive: -0.34%
15,CCCOc1ccc(C(=O)NCC2(N(C)C)CCCCC2)cc1,inactive: 0.8%
16,CN1CCC(Nc2ccc(F)c(Cl)c2)CC1,inactive: 1.69%
17,CCOc1ncccc1C(=O)NCC1(N2CCOCC2)CCCCC1,inactive: 3%
18,CN1CCC(Nc2ccc(Cl)cc2)CC1,inactive: 1.47%
19,COc1cc(OC)cc(C(=O)NCC2(N3CCOCC3)CCCCC2)c1,inactive: 1.12%
20,COc1cccc(C(=O)N(c2cc(C)cc(C)c2)C2CCN(C(=O)OC(C)(C)C)CC2)c1,inactive: 0.6%
21,CCC(CO)(C(=O)OC1CN2CCC1CC2)c1ccccc1 (stereo not given),inactive: 3.18%
22,Fc1ccccc1NC1CCN(Cc2ccccc2)CC1,inactive: -0.31%
23,Cc1ccc(C(=O)NCC2(N3CCCCC3)CCCCC2)o1,inactive: -0.13%
24,Cc1ccc(NC2(C#N)CCN(Cc3ccccc3)CC2)cc1,inactive: -0.93%
25,CC(=O)N(c1ccccc1)C1CCNCC1,inactive: -1.55%

row,SMILES,inhibition
1,COc1cc(OC)cc(C(=O)NCC2(N3CCCCC3)CCCCC2)c1,inactive: 0.11%
2,CN(C)c1ccc(C(=O)NCC2(N3CCCCC3)CCCCC2)cc1,inactive: 0.26%
3,Cn1c(=O)[nH]cc(N(CCCl)CCCl)c1=O,inactive: -0.6%
4,O=C(NCC1(N2CCCCC2)CCCCC1)c1ccco1,inactive: 0.2%
5,CCN1CCC(Nc2cccc(F)c2)CC1,inactive: -0.24%
6,Cc1ccccc1NC1(C#N)CCN(Cc2ccccc2)CC1,inactive: 3.33%
7,COc1ccc(NC2CCN(CCc3ccccc3)CC2)c(OC)c1,inactive: -0.09%
8,CCOC(=O)N1CCC(Nc2ccc(F)cc2)CC1,inactive: -0.01%
9,O=P1(N(CCCl)CCCl)SCCCS1,inactive: -0.09%
10,CCCCOc1ccc(C(=O)NCC2(N3CCOCC3)CCCCC2)cc1,inactive: -1.32%
11,O=C(NCC1(N2CCCCC2)CCCCC1)c1ccc(F)cc1,inactive: 0.37%
12,O=C1CCN(Cc2ccccc2)CC1,active: 4.32%
13,CCOc1ccc(C)cc1CN(CCCl)CCCl,inactive: -1.46%
14,CCOC(=O)N1CCC(Nc2cccc(C)c2)CC1,inactive: 0.38%
15,COc1cc(C(=O)NCC2(N(C)C)CCCCC2)ccc1OC(F)F,inactive: -0.98%
16,Cc1cccc(NC2(C#N)CCN(Cc3ccccc3)CC2)c1,inactive: -0.23%
17,CSc1ccccc1C(=O)NCC1(N2CCCCC2)CCCCC1,active: 5.03%
18,CC(C)(C)OC(=O)N1CCC(N(C(=O)c2ccccc2)c2ccc(F)cc2)CC1,inactive: 1.11%
19,COc1ccc(C(=O)NCC2(N3CCCCC3)CCCCC2)c(OC)c1OC,inactive: -0.03%
20,COc1ccc(C(=O)NCC2(N3CCCCC3)CCCCC2)cc1,inactive: 0.43%
21,O=C(NCC1(N2CCCCC2)CCCCC1)c1cccs1,inactive: 0.08%
22,O=C(NCC1(N2CCCCC2)CCCCC1)c1ccc(=O)[nH]c1,inactive: 1.59%
23,COc1ccc(Cl)cc1C(=O)NCC1(N2CCOCC2)CCCCC1,inactive: 0.4%
24,O=C(NCC1(N2CCCCC2)CCCCC1)c1ccc(Cl)s1,inactive: -0.04%
25,N#CC1(Nc2ccccc2)CCN(Cc2ccccc2)CC1,inactive: 0.03%

row,SMILES,inhibition
1,O=C(OC1CN2CCC1CC2)C1c2ccccc2Oc2ccccc21 (stereo not given),inactive: 0.13%
2,CCOC(=O)N1CCC(Nc2ccc(OC)cc2)CC1,inactive: -1.78%
3,Cc1cc(C)cc(N(C(=O)c2ccccc2)C2CCN(C(=O)OC(C)(C)C)CC2)c1,inactive: 0.95%
4,O=C(NCC1(N2CCCCC2)CCCCC1)c1ccc(Cl)nc1,inactive: 0.91%
5,O=C(NCC1(N2CCOCC2)CCCCC1)c1cc2ccccc2o1,inactive: -0.43%
6,O=C(NCC1(N2CCOCC2)CCCCC1)c1cc(F)c(F)cc1Cl,inactive: -0.95%
7,COc1cc(OC)c(C(=O)NCC2(N(C)C)CCCCC2)cc1OC,inactive: 2.63%
8,CC(C)c1ccc(NC2CCN(C(=O)OC(C)(C)C)CC2)cc1,inactive: 0.68%
9,CN(C)c1cccc(C(=O)NCC2(N3CCCCC3)CCCCC2)c1,inactive: 0.87%
10,COc1ccc(CN(CCCl)CCCl)cc1Cl,inactive: 1.01%
11,CCCOc1ccc(C(=O)NCC2(N(C)C)CCCCC2)cc1OC,inactive: 2.67%
12,Cc1ccc(C(=O)NCC2(N(C)C)CCCCC2)o1,inactive: 0.52%
13,CN1CCC(Nc2cccc(F)c2)CC1,inactive: -0.25%
14,O=C(NCC1(N2CCCCC2)CCCCC1)c1cncc(Br)c1,inactive: 0.98%
15,N#CC1(Nc2ccccc2)CCN(CCc2ccccc2)CC1,inactive: -0.44%
16,CCN1CCC(Nc2ccc(Cl)cc2)CC1,inactive: 0.2%
17,O=C(NCC1(N2CCCCC2)CCCCC1)c1cccc([N+](=O)[O-])c1,inactive: 1.58%
18,CSc1ccc(C(=O)NCC2(N3CCOCC3)CCCCC2)cc1,inactive: 1.22%
19,O=C(NCC1(N2CCCCC2)CCCCC1)c1ccc(OC(F)F)cc1,inactive: 1.75%
20,COc1cc(C(=O)NCC2(N3CCCCC3)CCCCC2)ccc1OC(F)F,inactive: 0.34%
21,O=C(NCC1(N2CCOCC2)CCCCC1)c1cc(=O)[nH]c2ccccc12,inactive: 0.24%
22,CN1CCN(CCOC(=O)C(O)(c2ccccc2)c2ccccc2)CC1,inactive: -0.25%
23,CC(C)c1ccc(C(=O)NCC2(N3CCOCC3)CCCCC2)cc1,inactive: 1.55%
24,COc1ccc(NC2CCN(C(=O)OC(C)(C)C)CC2)cc1,inactive: 2.95%
25,O=C(NCC1(N2CCCCC2)CCCCC1)c1cccc(C(F)(F)F)c1,inactive: 1.29%
